Test results published in US11185516B2 (Laboratorios Silanes S.A. DE C.V., priority 2016, dated 2021).

[1] = 2480 mg vs metformin hydrochloride 1000 mg
[2] = 620 mg vs metformin hydrochloride 1000 mg

| Ln AUCt0, differences attributed to the formula factor [1] | Ln AUC0∝, differences attributed to the formula factor [2] | Ln AUCt0, differences attributed to the formula factor [2] | Ln Cmax, differences attributed to the formula factor [2] | bioequivalence (90% C.I. of Cmax, AUCt0, AUC0∞ vs 80%-125%) [2] | Ln AUC0∝, differences attributed to the formula factor [1] | bioequivalence (90% C.I. of Cmax, AUCt0, AUC0∞ vs 80%-125%) [1] | Tmax, comparative analysis (2480 mg vs metformin hydrochloride 1000 mg, single dose) | Compound | gastrointestinal adverse reaction (administered without food) |
| --- | --- | --- | --- | --- | --- | --- | --- | --- | --- |
| statistically significant differences | – | – | – | – | – | – | – | CN(C)C(=N)N=C(N)N [Metformin hydrochloride, metformin hydrochloride, reference compound] | – |
| – | statistically significant differences | statistically significant differences | statistically significant differences | slight suprabioequivalence | statistically significant differences | infrabioequivalence | statistically significant differences | CN(C)C(=N)N=C(N)N [Metformin glycinate, N,N-dimethylimidodicarbonimidic diamide glycinate] | no detectable gastrointestinal adverse reaction |

Where a name gives a salt, the structure may show the parent alone. Read-outs that look alike come from different tables or passages of the source.
